Assay results: patent publication EP1277754B1, “IMIDAZOPYRIDINE DERIVATIVES” (YAMANOUCHI PHARMACEUTICAL CO. LTD., priority 2000, dated 2001)

Sequences of proteins named here, by UniProt entry; tags and fusion partners are left off.
UniProt P32871, whole entry: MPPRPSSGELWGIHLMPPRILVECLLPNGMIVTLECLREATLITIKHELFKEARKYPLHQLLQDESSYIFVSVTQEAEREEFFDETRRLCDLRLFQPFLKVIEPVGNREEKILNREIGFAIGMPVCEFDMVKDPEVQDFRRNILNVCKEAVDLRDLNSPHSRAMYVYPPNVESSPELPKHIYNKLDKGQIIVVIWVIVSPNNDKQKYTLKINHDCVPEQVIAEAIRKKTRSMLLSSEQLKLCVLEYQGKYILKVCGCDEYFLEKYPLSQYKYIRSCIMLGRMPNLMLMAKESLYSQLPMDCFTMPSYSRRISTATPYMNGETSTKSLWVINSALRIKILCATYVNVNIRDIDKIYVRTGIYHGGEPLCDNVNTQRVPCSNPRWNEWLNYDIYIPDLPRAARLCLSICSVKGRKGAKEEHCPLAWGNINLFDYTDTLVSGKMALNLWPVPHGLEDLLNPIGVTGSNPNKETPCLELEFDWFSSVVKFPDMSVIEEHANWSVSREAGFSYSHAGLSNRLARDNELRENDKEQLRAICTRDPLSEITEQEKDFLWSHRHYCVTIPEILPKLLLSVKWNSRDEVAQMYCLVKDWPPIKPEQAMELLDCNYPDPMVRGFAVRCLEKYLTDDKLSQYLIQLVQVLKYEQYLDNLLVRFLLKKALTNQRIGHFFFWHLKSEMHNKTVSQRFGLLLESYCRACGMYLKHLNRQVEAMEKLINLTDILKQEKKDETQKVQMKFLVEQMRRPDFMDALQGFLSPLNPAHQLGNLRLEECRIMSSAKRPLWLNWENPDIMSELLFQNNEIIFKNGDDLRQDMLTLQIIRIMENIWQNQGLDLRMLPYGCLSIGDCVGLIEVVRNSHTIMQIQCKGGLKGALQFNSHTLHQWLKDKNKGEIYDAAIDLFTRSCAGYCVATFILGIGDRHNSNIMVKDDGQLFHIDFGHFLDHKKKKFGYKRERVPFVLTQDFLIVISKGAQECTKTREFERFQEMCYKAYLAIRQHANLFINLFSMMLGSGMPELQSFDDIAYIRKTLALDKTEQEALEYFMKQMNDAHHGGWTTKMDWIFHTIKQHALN

Target: bovine p110α (Bos taurus, UniProt P32871)
Settings: potency relative to LY294002
Protocol: Inhibition was determined using enzyme (bovine p110α) prepared in the baculovirus expression system. […] The resulting mixture was stirred and then centrifuged. […] The radioactivity was measured using Cerenkov light.

SMILES: Cc1ccc([N+](=O)[O-])cc1S(=O)(=O)n1ccc(-c2c(C)nc3ccc(Br)cn23)n1 [Compound 6, 3-(6-Bromo-2-methylimidazo[1,2-a]pyridin-3-yl)-1H-pyrazol-1-yl 2-methyl-5-nitrophenyl sulfone]
- inhibits PI3K ... times as strong as known PI3K inhibitor LY294002: more than 10 times
